Tested on: red blood cells
Experiment: Red blood cell hemolysis assay
Format: cell-based
Conditions: 1 hour at 37° C.
Experimental: FIG. 9 is a graph illustrating red blood cell lysis by the 37pA peptide and derivative peptides (1A, 2A, 3A, 4A, 5A, and 10A). Red blood cells were incubated with the indicated concentration of the peptides for 1 hour at 37° C. Results are expressed as the mean of triplicates±1 SD.
The 37pA peptide and all of the modified peptides were then tested for cytotoxicity, using a red blood cell hemolysis assay (FIG. 9). […] Approximately 25% of the red blood cells were lysed after 1 hour at the maximum dose tested (FIG. 9). Overall, the modified peptides containing the Ala substitutions were less cytotoxic, and the degree of cytotoxicity closely correlated with the number of Ala substitutions.

DWLKAFYDKVAEKLKEAFPDWLKAFYDKVA EKLKEAF [37pA, reference compound]
hemolysis / cytotoxicity to red blood cells (in words): cytotoxic | red blood cells lysed (maximum dose tested): Approximately 25%
